# Values of other authors, collected in PMC1562422.
# The chains behind the UniProt entries cited, without tags or fusion partners. Residues count along the entry.
# UniProt P01589, 22-240, chain 1 of 2: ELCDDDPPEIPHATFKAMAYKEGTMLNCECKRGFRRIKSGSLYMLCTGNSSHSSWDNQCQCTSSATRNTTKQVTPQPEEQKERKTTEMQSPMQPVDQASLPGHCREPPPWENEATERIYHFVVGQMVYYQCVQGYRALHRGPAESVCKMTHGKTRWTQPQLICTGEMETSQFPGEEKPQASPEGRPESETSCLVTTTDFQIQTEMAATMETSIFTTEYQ
# UniProt P60568, 21-153: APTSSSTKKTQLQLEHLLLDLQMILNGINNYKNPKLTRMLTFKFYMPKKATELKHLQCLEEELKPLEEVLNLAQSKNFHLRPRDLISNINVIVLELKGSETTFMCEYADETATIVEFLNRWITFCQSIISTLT
# Target: IL2 receptor α/β heterodimer (Homo sapiens) (UniProt P01589)
# Test: SPR
substance,measurement,value
IL2 (from UniProt P60568),Kd,0.3 nM
